From patent US20020168748

Experiments:
[1] = test system: peptide DDGTQGCMGLPCVVM (C-terminus of N-Ras)
[2] = test system: peptide DESGPGCMSCKCVLS (C-terminus of H-ras)
[3] = test system: peptide GKKKKKKSKTKCVIM (C-terminus of K-ras4B)
[4] = test system: peptide KCVVL (C-terminus of CaRho1)

Row | Substance | prenylation of the peptide [1] | prenylation of the peptide [2] | prenylation of the peptide [3] | prenylation of the peptide [4]
1 | human FTase (hFTase) | + | + | + | –
2 | human GGTase (hGGTase) | – | – | + | +
